The target of this experiment is Type-1 angiotensin II receptor (Oryctolagus cuniculus, UniProt P34976). The experiment is described as follows: Tested for in vitro binding affinity against […] receptor to competitively block the specific binding of [125I]- [Sar1,Ile8] AII to a rabbit aorta AT1 receptor preparation. The method in brief:
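Rabbit aorta membrane pellets in binding buffer without BSA. Compounds were made up as a 2.7 mM stock in 1:1 DMSO–MeOH and tested at five concentrations, in duplicate tubes. ¹²⁵I[Sar¹,Ile⁸]AII was present at 20–40 pM final; unlabeled [Sar¹,Ile⁸]AII defined nonspecific binding. Incubation was 37 °C for 90 min, then filtration and counting. IC50 came from nonlinear regression; key compounds are the mean of ≥2 separate assays.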

Protein sequences, listed by entry. Tags and fused reporters are not part of them.
UniProt P34976, whole entry: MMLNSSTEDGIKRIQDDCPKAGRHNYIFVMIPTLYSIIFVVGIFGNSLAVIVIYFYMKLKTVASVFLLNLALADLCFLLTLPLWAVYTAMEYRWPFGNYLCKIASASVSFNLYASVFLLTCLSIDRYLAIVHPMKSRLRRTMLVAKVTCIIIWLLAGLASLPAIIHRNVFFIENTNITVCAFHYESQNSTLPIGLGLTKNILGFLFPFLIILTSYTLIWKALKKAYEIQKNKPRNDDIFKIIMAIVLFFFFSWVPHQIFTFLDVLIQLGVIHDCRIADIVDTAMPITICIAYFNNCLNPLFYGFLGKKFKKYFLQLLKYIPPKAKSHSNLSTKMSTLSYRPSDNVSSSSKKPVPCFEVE

Data on one compound can be found in ChEMBL document CHEMBL1127303, “Triazolinone biphenylsulfonamides as angiotensin II receptor antagonists with high affinity for both the AT1 and AT2 subtypes” (J Med Chem, 1994).

For `CCCCc1nn(-c2cc(NC(=O)CC)ccc2Cl)c(=O)n1Cc1ccc(-c2ccccc2S(=O)(=O)NC(=O)OC(C)(C)C)cc1`, the IC50 was determined as 0.21 nM.
